Assay [1] addresses CBP BRD protein (Homo sapiens, UniProt Q92793). Put plainly: CBP inhibitory activity, TR-FRET assay of CBP bromodomain with Ac-H4 peptide. As to conditions: read-out: CBP BRD IC50, CBP BRD protein 7.5 nM, Ac-H4 peptide 85 nM, 2 hours at room temperature. As for the experimental part: CBP inhibitory activity was measured using a time resolved fluorescence resonance energy transfer (TR-FRET) experiment to verify the activity of CBP bromodomain.
(§1) The assay was performed in a final volume of 14 µl, optimized based on a CREBBP time resolved fluorescence resonance energy transfer (TR-FRET) assay kit (BPS Bioscience, cat. 32619) to maximize an assay window, and performed in a final volume of 14 µl, while maximizing the assay window. A TR-FRET fluorescence acceptor and a Tb donor were diluted in an assay buffer containing 2-[4-(2-hydroxyethyl)piperazin-1-yl]ethanesulfonic acid (hereafter, referred to as an assay buffer, BPS Bioscience, cat. 33012), and 3 µl of each solution was transferred to all wells of a white 384-low-volume well plate (Corning, cat. 4513). 2 µl of 4X Ac-H4 peptide (final concentration 85 nM) was transferred to high control wells and test wells. Each compound was prepared at 10 concentration points by serially diluting 3-fold from the highest concentration in a dimethyl sulfoxide solvent. The compound at each concentration was then diluted in the assay buffer to prepare a diluted compound solution that was 4-fold more concentrated than the final concentration. 2 µl of each compound or dimethyl sulfoxide prepared in this way was distributed into an assay plate so that the final test concentration was a minimum of 0.5 µM to a maximum of 10 µM (final dimethyl sulfoxide concentration 1%). 6 µL of 1X assay buffer was added to low control wells and 2 µl was added to high control and test wells. Then, 2 µl of 4X CBP BRD protein (final concentration 7.5 nM, BPS bioscience, cat 31128) was added to initiate a PPI reaction. The plate was reacted at room temperature for 2 hours before measuring the signal. The TR-FRET signal was measured using an EnVision Multilabel plate reader (PerkinElmer; Mirror LNACE/DELFIA Dual/Bias).
For data analysis, the values of each well were obtained using a TR-FRET ratio ((Signal 665 nm/Signal 615 nm)X20000. Data analysis was performed using the TR-FRET ratio ((Signal 665 nm/Signal 615 nm)X20000. Data were reported as percent inhibition compared to control wells based on the following equation: %Activity = ((FRETcompound - FRETLow av)/(FRETHigh av - FRETLow av))X100. IC50 analysis was determined by standard 4 parameter curve fitting according to an algorithm using GraphPad Prism 7.0 (GraphPad Software Inc., La Jolla, CA, USA). All data are expressed as mean ± standard error of the mean (SEM).
In general terms: In TR-FRET formats the signal depends on donor and acceptor labels being close together.

Chains of the proteins cited; added tags and fusions are not shown. Residues count along the entry.
UniProt Q92793, 1085-1192 limits assumed: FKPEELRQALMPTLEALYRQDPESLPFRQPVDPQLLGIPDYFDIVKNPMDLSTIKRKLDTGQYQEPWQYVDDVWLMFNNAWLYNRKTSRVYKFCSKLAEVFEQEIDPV

The target of assay [2] is BRD4 (BD1) protein (Homo sapiens, UniProt O60885). Put plainly: BRD4 inhibitory activity, TR-FRET assay of BRD4 bromodomain with Ac-H4 peptide. As to conditions: read-out: BRD4 (BD1) IC50, BRD4 (BD1) protein 7.5 nM, Ac-H4 peptide 15 nM, 2 hours at room temperature. As for the experimental part:
BRD4 inhibitory activity was measured using a time resolved fluorescence resonance energy transfer (TR-FRET) experiment to verify the activity of BRD4 bromodomain.
as §1, with “32613)” for “32619)”, “15” for “85”, “BRD4 (BD1)” for “CBP BRD”, “31040)” for “31128)”, “Dual/Bias). For data analysis, the values of each well were obtained using a TR-FRET ratio ((Signal 665 nm/Signal 615 nm) X20000. Data analysis was performed using the TR-FRET ratio ((Signal 665 nm/Signal 615 nm) X20000. Data were reported as percent inhibition compared to control wells based on the following equation: %Activity = ((FRETcompound - FRETLow av)/(FRETHigh av - FRETLow av)) X100. IC50 analysis was determined by standard 4 parameter curve fitting according to an algorithm using GraphPad Prism 7.0 (GraphPad Software Inc., La Jolla, CA, USA). All data are expressed as mean ± standard error of the mean (SEM).” for “Dual/Bias).”

Some results are limits rather than exact numbers.

In the case of `CNC(=O)c1ccc(F)c(-c2ccc3c(c2)nc(-c2cncn2C)n3-c2ccc3c(c2)n(C)c(=O)n3C)c1`, the figures for the IC50 in assay [1] and in assay [2] were < 0.5 µM and > 5 µM, respectively.
For `Cn1ccc(-c2ccc3c(c2)nc(-c2cncn2C)n3-c2ccc3c(c2)n(C)c(=O)n3C)n1`, the IC50 (commonly the concentration at which inhibition is half-maximal) in assay [1] was < 0.5 µM; in assay [2] it was > 5 µM.
`CNC(=O)c1ccc(-c2ccc3c(c2)nc(-c2ccnn2C)n3-c2ccc3c(c2)n(C)c(=O)n3C)cc1F`: the IC50 in assay [1] is 0.5 to 5 µM; in assay [2], > 5 µM.
Take `CNC(=O)c1ccc(-c2ccc3c(c2)nc(-c2ccsc2)n3-c2ccc3c(c2)n(C)c(=O)n3C)cc1F`: the IC50 is 0.5 to 5 µM in assay [1] and > 5 µM in assay [2].
As for `CNC(=O)c1ccc(-c2ccc3c(c2)nc(C(C)(C)N)n3-c2ccc3c(c2)n(C)c(=O)n3C)cc1F`, the IC50 in assay [1] was < 0.5 µM; in assay [2] it was > 5 µM.
On to `CNC(=O)c1ccc(-c2ccc3c(c2)nc(-c2c(C)ncn2C)n3-c2ccc3c(c2)n(C)c(=O)n3C)cc1F`, for which the half-maximal inhibitory concentration (IC50) was 0.5 to 5 µM in assay [1] and > 5 µM in assay [2].
Taken in the same sequence, the figures for `CNC(=O)c1ccc(-c2ccc3c(c2)nc(-c2cnccc2N)n3-c2ccc3c(c2)n(C)c(=O)n3C)cc1F` were 0.5 to 5 µM and > 5 µM.
Turning to `CNC(=O)c1ccc(-c2ccc3c(c2)nc(-c2cccn2C)n3-c2ccc3c(c2)n(C)c(=O)n3C)cc1F`, the results for the IC50 in assay [1] and in assay [2] were < 0.5 µM and > 5 µM, respectively.
For `CNC(=O)c1ccc(-c2ccc3c(c2)nc(C2CCCCC2)n3-c2ccc3c(c2)n(C)c(=O)n3C)cc1F`, the IC50 in assay [1] and in assay [2] was > 5 µM throughout.
Consider `Cc1ncc(-c2ccc3c(c2)nc(-c2cncn2C)n3-c2ccc3c(c2)n(C)c(=O)n3C)s1`, for which the values for the half-inhibitory concentration (IC50) in assay [1] and in assay [2] were < 0.5 µM and > 5 µM, respectively.
As to `CNC(=O)c1ccc(-c2ccc3c(c2)nc(-c2cnco2)n3-c2ccc3c(c2)n(C)c(=O)n3C)cc1F`, the half-maximal inhibitory concentration (IC50) in assay [1] and in assay [2] was > 5 µM each time.
In the case of `CNC(=O)c1ccc(-c2ccc3c(c2)nc(C2CC2)n3-c2ccc3c(c2)n(C)c(=O)n3C)cc1F`, the results for the IC50 in assay [1] and in assay [2] were 0.5 to 5 µM and > 5 µM, respectively.
Take `CNC(=O)c1ccc(-c2ccc3c(c2)nc(-c2ccnc(O)c2)n3-c2ccc3c(c2)n(C)c(=O)n3C)cc1F`: the IC50 in assay [1] is 0.5 to 5 µM; in assay [2], > 5 µM.
The matching figures for `CNC(=O)c1ccc(-c2ccc3c(c2)nc(C(C)(C)C#N)n3-c2ccc3c(c2)n(C)c(=O)n3C)cc1F`: < 0.5 µM and > 5 µM.
Regarding `CN(C)c1ccc(-c2ccc3c(c2)nc(-c2cncn2C)n3-c2ccc3c(c2)n(C)c(=O)n3C)cc1`, the IC50 in assay [1] was < 0.5 µM; in assay [2], > 5 µM.
With `CNC(=O)c1ccc(-c2ccc3c(c2)nc(-c2ccccn2)n3-c2ccc3c(c2)n(C)c(=O)n3C)cc1F`, the IC50 in assay [1] and in assay [2] was > 5 µM each time.
Take `Cn1cncc1-c1nc2cc(-c3cn(CC(=O)N4CCOCC4)nn3)ccc2n1-c1ccc2c(c1)n(C)c(=O)n2C`: the IC50 is 0.5 to 5 µM in assay [1] and > 5 µM in assay [2].
`CNC(=O)c1cccc(-c2ccc3c(c2)nc(-c2cncn2C)n3-c2ccc3c(c2)n(C)c(=O)n3C)c1`: the IC50 in assay [1] was < 0.5 µM; in assay [2] it was 0.5 to 5 µM.
Turning to `CNC(=O)c1ccc(-c2ccc3c(c2)nc(C)n3-c2ccc3c(c2)n(C)c(=O)n3C)cc1F`, the IC50 was 0.5 to 5 µM in assay [1] and > 5 µM in assay [2].
With `CNC(=O)c1ccc(-c2ccc3c(c2)nc(-c2cccc(C)c2C)n3-c2ccc3c(c2)n(C)c(=O)n3C)cc1F`, the IC50 was < 0.5 µM in assay [1] and > 5 µM in assay [2].
For `Cn1cncc1-c1nc2cc(-c3cn(CC(=O)O)nn3)ccc2n1-c1ccc2c(c1)n(C)c(=O)n2C`, the IC50 is 0.5 to 5 µM in assay [1] and > 5 µM in assay [2].
For `Cn1cncc1-c1nc2cc(N3CCCCC3)ccc2n1-c1ccc2c(c1)n(C)c(=O)n2C`, the IC50 is 0.5 to 5 µM in assay [1] and > 5 µM in assay [2].
For `CNC(=O)c1ccc(-c2ccc3c(c2)nc(CC2CCCCC2)n3-c2ccc3c(c2)n(C)c(=O)n3C)cc1F`, the 50% inhibitory concentration (IC50) in assay [1] and in assay [2] was > 5 µM throughout.
As to `COc1cc(OC)cc(-c2ccc3c(c2)nc(-c2cncn2C)n3-c2ccc3c(c2)n(C)c(=O)n3C)c1`, the half-inhibitory concentration (IC50) is < 0.5 µM in assay [1] and > 5 µM in assay [2].
The matching figures for `Cn1cncc1-c1nc2cc(-c3ccn(C)c(=O)c3)ccc2n1-c1ccc2c(c1)n(C)c(=O)n2C`: 0.5 to 5 µM and > 5 µM.
For `Cn1cncc1-c1nc2cc(-c3cn(CC(=O)N4CCCCC4)nn3)ccc2n1-c1ccc2c(c1)n(C)c(=O)n2C`, the values for the half-inhibitory concentration (IC50) in assay [1] and in assay [2] were 0.5 to 5 µM and > 5 µM, respectively.
The matching figures for `Cn1cncc1-c1nc2cc(Oc3ccccc3)ccc2n1-c1ccc2c(c1)n(C)c(=O)n2C`: 0.5 to 5 µM and > 5 µM.
With `CNC(=O)c1ccc(-c2ccc3c(c2)nc(-c2cnc[nH]2)n3-c2ccc3c(c2)n(C)c(=O)n3C)cc1F`, the IC50 in assay [1] and in assay [2] was > 5 µM throughout.
With `COc1cc(-c2ccc3c(c2)nc(-c2cncn2C)n3-c2ccc3c(c2)n(C)c(=O)n3C)ccn1`, the half-maximal inhibitory concentration (IC50) in assay [1] was < 0.5 µM; in assay [2] it was 0.5 to 5 µM.
Take `CNC(=O)c1ccc(-c2ccc3c(c2)nc(-c2cccc(C(F)(F)F)c2C)n3-c2ccc3c(c2)n(C)c(=O)n3C)cc1F`: the half-inhibitory concentration (IC50) in assay [1] is 0.5 to 5 µM; in assay [2] it was > 5 µM.
Consider `CNC(=O)c1ccc(-c2ccc3c(c2)nc(-c2cnc(C)n2C)n3-c2ccc3c(c2)n(C)c(=O)n3C)cc1F`, for which the results for the IC50 in assay [1] and in assay [2] were 0.5 to 5 µM and > 5 µM, respectively.
The matching figures for `CNC(=O)c1ccc(-c2ccc3c(c2)nc(-c2cccc(C#N)c2C)n3-c2ccc3c(c2)n(C)c(=O)n3C)cc1F`: 0.5 to 5 µM and > 5 µM.
As to `CC(=O)Nc1ccc(-c2ccc3c(c2)nc(-c2cncn2C)n3-c2ccc3c(c2)n(C)c(=O)n3C)cc1`, the IC50 in assay [1] was < 0.5 µM; in assay [2] it was > 5 µM.
The matching figures for `COc1cccc(-c2ccc3c(c2)nc(-c2cncn2C)n3-c2ccc3c(c2)n(C)c(=O)n3C)c1`: < 0.5 µM and > 5 µM.
In the case of `CNC(=O)c1ccc(-c2ccc3c(c2)nc(-c2cocn2)n3-c2ccc3c(c2)n(C)c(=O)n3C)cc1F`, the IC50 in assay [1] and in assay [2] was > 5 µM throughout.
`Cn1cncc1-c1nc2cc(-c3cnn(CC(N)=O)c3)ccc2n1-c1ccc2c(c1)n(C)c(=O)n2C`: the IC50 is 0.5 to 5 µM in assay [1] and > 5 µM in assay [2].
Consider `Cn1cncc1-c1nc2cc(-c3ccc(NS(C)(=O)=O)cc3)ccc2n1-c1ccc2c(c1)n(C)c(=O)n2C`, for which the IC50 was < 0.5 µM in assay [1] and 0.5 to 5 µM in assay [2].

(Values after patent publication EP4837906A1, “NOVEL COMPOUND USED AS CBP/PA300 INHIBITOR, AND PHARMACEUTICAL COMPOSITION FOR PREVENTING OR TREATING CANCER, INFLAMMATORY DISORDERS, OR AUTOIMMUNE DISEASES COMPRISING SAME AS ACTIVE INGREDIENT” (dated 2026).)
